Measurements taken from patent US11828750B2, “Material for screening for compound acting on ION channel and use thereof” (PUBLIC UNIVERSITY CORPORATION NAGOYA CITY UNIVERSITY, priority 2016, dated 2023).

Target: T1, hSK4 (Homo sapiens, UniProt O15554)
T1 construct: expressed in transfected cells; host or cells: HEK293 Kir 2.1 + mutated Nav cells, transient expression via baculovirus vector
Test: Cell death assay in SK4 test cells (Kir 2.1+IFM/QQQ+SK4 cells)
Type: cell-based
Conditions: added together with DCEBIO, 100 nM Ca ion
From the text: hSK2 and hSK4, which are each one type of human-derived Ca ion-activated ion channel, were respectively subcloned in a baculovirus vector, which is a viral vector, and were inserted into the Kir 2.1 #mutated Nav cells prepared in Second Embodiment to prepare hSK2 transiently expressing Kir 2.1+IFM/QQQ+SK2 cells (referred to herebelow as SK2 test cells) and hSK4 transiently expressing Kir 2.1+IFM/QQQ+SK4 cells (referred to herebelow as SK4 test cells). Sf-900 III SFM (Thermo Fisher Scientific) was used for the culture medium for baculovirus vector production, and Dulbecco's Modified Eagle Medium (D-MEM) culture medium supplemented with 10% fetal bovine serum (FBS) was used as the culture medium for the test cells.

Clc1ccccc1C(c1ccccc1)(c1ccccc1)n1cccn1 [TRAM34]
effect of inhibitor on DCEBIO-mediated inhibition of cell death: the DCEBIO-mediated inhibition of cell death was extinguished
